Earlier results in patent US20060093597A1, “Methods of treating involuntary facial spasms and facial wrinkles” (priority 2002, published 2006).

Test system: nerve-evoked twitch response
Details: reversed by neostigmine; cited from earlier work

Substance: coryneine
- concentration that blocked the nerve-evoked twitch response: 20 to 150 µM
